This note sets out measurements from PubChem BioAssay AID720707 (National Center for Advancing Translational Sciences (NCATS), 2013).

The chains behind the UniProt entries cited, without tags or fusion partners.
UniProt O95398, whole entry: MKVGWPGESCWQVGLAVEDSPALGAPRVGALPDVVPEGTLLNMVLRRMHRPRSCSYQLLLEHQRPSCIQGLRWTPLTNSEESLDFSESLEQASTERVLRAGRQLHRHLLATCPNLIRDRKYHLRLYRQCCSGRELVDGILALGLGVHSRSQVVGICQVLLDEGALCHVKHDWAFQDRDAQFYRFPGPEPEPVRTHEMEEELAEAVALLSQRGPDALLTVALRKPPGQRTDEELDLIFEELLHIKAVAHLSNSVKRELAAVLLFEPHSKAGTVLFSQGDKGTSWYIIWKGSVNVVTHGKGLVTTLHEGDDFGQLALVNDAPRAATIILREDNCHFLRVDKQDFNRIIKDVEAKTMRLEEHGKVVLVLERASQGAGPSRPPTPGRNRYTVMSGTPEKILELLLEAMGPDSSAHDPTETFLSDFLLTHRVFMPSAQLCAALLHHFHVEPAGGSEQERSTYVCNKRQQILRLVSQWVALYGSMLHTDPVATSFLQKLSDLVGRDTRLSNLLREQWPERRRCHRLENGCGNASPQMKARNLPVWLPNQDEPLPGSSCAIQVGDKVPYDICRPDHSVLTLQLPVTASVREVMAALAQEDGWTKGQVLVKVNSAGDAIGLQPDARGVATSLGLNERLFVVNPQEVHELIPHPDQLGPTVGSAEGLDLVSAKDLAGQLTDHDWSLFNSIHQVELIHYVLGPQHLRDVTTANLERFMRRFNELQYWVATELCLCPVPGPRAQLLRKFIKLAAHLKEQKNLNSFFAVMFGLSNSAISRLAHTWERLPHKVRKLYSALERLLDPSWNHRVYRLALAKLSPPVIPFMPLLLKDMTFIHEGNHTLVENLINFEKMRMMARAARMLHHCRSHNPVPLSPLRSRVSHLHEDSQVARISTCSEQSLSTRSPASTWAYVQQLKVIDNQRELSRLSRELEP

Molecules are shown by their SMILES. The list shows a part of the results, in another mix than the full data. Activity calls are given as the source filed them. The call rests on the fitted dose curve; in most records, active means well fitted activation curve with a large enough effect; inconclusive means small, poorly fitted or top-dose-only effect; inactive means no such curve, though single readings can be large or run the other way.

The target in this test is Rap guanine nucleotide exchange factor 3 (Homo sapiens) (UniProt O95398). Kind of test: qHTS for Agonist of cAMP-regulated guanine nucleotide exchange factor 3 (EPAC1): primary screen. Further: nearly all actives have a fitted effect of over 60% in size. To be noted: biochemical assay, 100% = response to 6.5 mM cAMP; at 154 µM (top of the series). An excerpt: In multi-cellular eukaryotic organisms, the effects of cAMP are transduced by two ubiquitously-expressed intracellular cAMP receptors, the classic protein kinase A/cAMP-dependent protein kinase (PKA/cAPK) and the more recently discovered exchange protein directly activated by cAMP/cAMP-regulated guanine nucleotide exchange factor (EPAC/cAMP-GEF). Both PKA and EPAC are ubiquitously expressed in all tissues, and an increase in intracellular cAMP levels will lead to the activation of both PKA and EPAC. Therefore, careful dissections of the individual role and relative contribution of EPAC and PKA within the overall cAMP signaling in various model systems are critical for further elucidating the mechanism of cAMP signaling. To date no EPAC-specific antagonists and agonist, as well as isoform-specific agonists have been reported, and developing EPAC-specific pharmacological probes to determine the physiological functions that EPAC play in the overall cAMP-mediated signaling remains a major challenge within the research field. Furthermore, identified regulators of EPAC may lead to new mechanism-based therapeutic strategies specifically targeting the EPAC / cAMP-signaling components as EPAC has been implicated to play important roles in major human pathological conditions such as diabetes, heart disease, and cancer.
This qHTS will be used to screen the Molecular Libraries Small Molecule Repository (MLSMR) as a concentration-titration series using the NCGC unique quantitative screening (qHTS) platform to find activators for EPAC1. In addition, this assay will also be used as a counterscreen for the EPAC2 qHTS. This fluorescent based assay is developed and validated for EPAC1 that measures exchange using EPAC effector Rap1 complex with BODIPY-GDP, a GDP analog with a tethered fluorophores. Activators are identified by monitoring the change in fluorescence signal as the exchanged free BODIPY-GDP has a reduced fluorescence compared to Rap1-bound BODIPY-GDP. Increase in signal (activation) is the desired outcome for the EPAC1 agonist while no activity in this assay is desired for the EPAC2 agonist counterscreen.
[1] de Rooij, J., Zwartkruis, F. J., Verheijen, M. H., Cool, R. H., Nijman, S. M., Wittinghofer, A., and Bos, J.L. (1998) Nature 396, 474-477
NIH Chemical Genomics Center [NCGC]
NIH Molecular Libraries Probe Centers Network [MLPCN]
Assay Submitter (PI): Xiaodong Cheng, The University of Texas Medical Branch
Briefly, three uL of reagents (100 nM EPAC1, 250 nM RAP1B-BODIPY-GDP, 50 uM GDP) were dispensed into a 1536-well Greiner black solid-bottom medium binding assay plate. Controls and test compounds (23 nL) were transferred to the plate via a Kalypsys pin tool equipped with a 1536-pin array. The plates were centrifuged at 1,000 rpm for 15 seconds followed by 5 minute incubation at room temperature. The assay plates were read at 5 minute intervals for 30 minutes in the ViewLux plate reader using 480nm excitation and 540nm emission filters. The results were normalized to the agonist positive control of 6.5 mM cAMP.
Consider `CP(=O)(NC(=O)Nc1ccccc1)Oc1ccccc1` (configuration not stated), for which the activation is inactive: 4.1%. Consider `CCc1ccc(OP(C)(=O)N2CCN(c3ccc([N+](=O)[O-])cc3)CC2)cc1` (configuration not stated), for which the activation was inactive: 5.13%. To `Cc1cc(C)cc(OP(C)(=O)Nc2ccc(SC(F)(F)F)cc2)c1` (configuration not stated) belongs inactive: -0.264%; to `Cc1cccc(C)c1OP(C)(=O)Nc1ccc(SC(F)(F)F)cc1` (configuration not stated), inactive: 0.297%; to `CP(=O)(Nc1ccc(SC(F)(F)F)cc1)Oc1ccc(Cl)cc1` (configuration not stated), inactive: -2.59%.

Turning to `CP(=O)(Oc1ccccc1)OC(c1ccccc1)C(F)(F)F` (configuration not stated), the activation is inactive: 3.95%. The figure for `CP(=O)(Nc1ccccn1)Oc1ccc(Cl)cc1` (configuration not stated) is inactive: 4.09%. To `CCOP(C)(=S)SCC(=O)NC(C)C(=O)O` (configuration not stated) belongs inactive: 5.71%; to `CCOC(=O)c1ccc(NP(C)(=O)Oc2ccc(OC)cc2)cc1` (configuration not stated), inactive: -1.23%; to `O=[N+]([O-])c1cc([N+](=O)[O-])c(O)c([N+](=O)[O-])c1.c1ccc(Oc2ccncc2)cc1`, inactive: 4.85%. To `CN(Cc1cccnc1)C(=O)COc1ccc(Cl)c(Cl)c1.O=[N+]([O-])c1cc([N+](=O)[O-])c(O)c([N+](=O)[O-])c1` belongs inactive: -14.7%; to `O=[N+]([O-])c1cc([N+](=O)[O-])c(-n2nnc3ccccc32)c([N+](=O)[O-])c1`, inactive: -4.66%. As for `Cc1nc2ccc3ccccc3c2s1.O=[N+]([O-])c1cc([N+](=O)[O-])c(O)c([N+](=O)[O-])c1`, the activation was inactive: 3.25%. To `O=[N+]([O-])c1cc([N+](=O)[O-])c(-c2cnn(-c3ccccc3)c2)c([N+](=O)[O-])c1` belongs inactive: 8.96%; to `CC1=C2N=C(C=C3N=C(C(C)=C4[N-][C@@](C)([C@@H]5N=C1[C@](C)(CCC(=O)NC[C@@H](C)OP(=O)([O-])O[C@H]1[C@@H](O)[C@@H](n6cnc7cc(C)c(C)cc76)O[C@@H]1CO)[C@H]5CC(N)=O)[C@@](C)(CC(N)=O)[C@@H]4CCC(N)=O)[C@@](C)(CC(N)=O)[C@@H]3CCC(N)=O)C(C)(C)[C@@H]2CCC(N)=O.[C-]#N.[Co+3]`, inactive: -10.9%; to `O=[N+]([O-])c1cc([N+](=O)[O-])c(Nc2nnnn2CCO)c([N+](=O)[O-])c1`, inactive: -7.16%. The figure for `CCCOc1ccc(NP(C)(=O)Oc2ccc(Cl)cc2)cc1` (configuration not stated) is inactive: 0.227%. The figure for `CP(=O)(Nc1ccc(SC(F)(F)F)cc1)Oc1ccccc1` (configuration not stated) is inactive: -12.1%; for `COc1ccccc1OP(C)(=O)Nc1c(C)cccc1C` (configuration not stated) it is inactive: -4.35%. As for `CN1CCCCC1COC(=O)C1(O)c2ccccc2CCc2ccccc21` (configuration not stated), the activation was inactive: 0.711%.

Take `CC1=NCCc2c1[nH]c1ccccc21.O=[N+]([O-])c1cc([N+](=O)[O-])c(O)c([N+](=O)[O-])c1`: the activation was inactive: 7.64%. Take `Cc1cc(C)cc(OP(C)(=O)Nc2ccc(C)cc2C)c1` (configuration not stated): the activation is inactive: -2.35%. In the case of `CCOC(=O)c1ccc(NP(C)(=O)Oc2cc(C)cc(C)c2)cc1` (configuration not stated), the activation was inactive: 2.55%. Consider `COc1ccccc1OP(C)(=O)Nc1cccc(Br)c1` (configuration not stated), for which the activation is inactive: -7.02%. To `Cc1cc(C)cc(OP(C)(=O)Nc2ccccn2)c1` (configuration not stated) belongs inactive: 4.39%; to `CP(=O)(Nc1cccc(Br)c1)Oc1ccccc1` (configuration not stated), inactive: 8.36%.

For the compound `Cc1ccc(C)c(NP(C)(=O)Oc2ccccc2)c1` (configuration not stated), the activation was inactive: -1.88%.
